Results from ChEMBL document CHEMBL1212781, “VIM-19, a metallo-beta-lactamase with increased carbapenemase activity from Escherichia coli and Klebsiella pneumoniae” (2010).

How the values were obtained:
[1] = test system: CCN1CCN(C(=O)N[C@@H](C(=O)N[C@@H]2C(=O)N3[C@@H]2SC(C)(C)[C@@H]3C(=O)O)c2ccccc2)C(=O)C1=O; assay: (§1) Hydrolytic activity of beta-lactamase VIM-19 expressed in Escherichia coli TOP10 by spectrophotometry
Outline: (§2)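 Enzyme came from E. coli TOP10 (pVIM-19) grown overnight at 37°C in Trypticase soy broth with amoxicillin (100 μg/ml) and kanamycin (30 μg/ml). The sonicated, cleared extract was purified on Q-Sepharose with a 0–1 M NaCl gradient, in Bis-Tris then cacodylate pH 6.5 buffers.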

[2] = test system: C[C@@H](O)[C@H]1C(=O)N2C(C(=O)O)=C(S[C@@H]3CN[C@H](C(=O)N(C)C)C3)[C@H](C)[C@H]12; assay: as §1; outline: as §2
[3] = test system: C[C@@H](O)[C@H]1C(=O)N2C(C(=O)O)=C(SCCNC=N)C[C@H]12; assay: as §1; outline: as §2
[4] = test system: CO/N=C(\C(=O)N[C@@H]1C(=O)N2C(C(=O)[O-])=C(C[N+]3(C)CCCC3)CS[C@H]12)c1csc(N)n1; assay: as §1; outline: as §2
[5] = test system: C[C@@H](O)[C@H]1C(=O)N2C(C(=O)O)=C(SCCNC=N)C[C@H]12; assay: (§3) Ratio of Kcat to Km for beta-lactamase VIM-19 expressed in Escherichia coli TOP10 by spectrophotometry; outline: as §2
[6] = test system: CO/N=C(\C(=O)N[C@@H]1C(=O)N2C(C(=O)[O-])=C(C[N+]3(C)CCCC3)CS[C@H]12)c1csc(N)n1; assay: as §3; outline: as §2
[7] = test system: C[C@H]1[C@H](NC(=O)/C(=N\OC(C)(C)C(=O)O)c2csc(N)n2)C(=O)N1S(=O)(=O)O; assay: (§4) Ratio of Kcat to Km for beta-lactamase VIM-1 expressed in Escherichia coli TOP10 by spectrophotometry
[8] = test system: C[C@@H](O)[C@H]1C(=O)N2C(C(=O)O)=C(SCCNC=N)C[C@H]12; assay: as §4
[9] = test system: CO/N=C(\C(=O)N[C@@H]1C(=O)N2C(C(=O)[O-])=C(C[N+]3(C)CCCC3)CS[C@H]12)c1csc(N)n1; assay: as §4
[10] = test system: C[C@@H](O)[C@H]1C(=O)N2C(C(=O)O)=C(S[C@@H]3CN[C@H](C(=O)N(C)C)C3)[C@H](C)[C@H]12; assay: (§5) Hydrolytic activity of beta-lactamase VIM-1 expressed in Escherichia coli TOP10 by spectrophotometry
[11] = test system: C[C@H]1[C@H](NC(=O)/C(=N\OC(C)(C)C(=O)O)c2csc(N)n2)C(=O)N1S(=O)(=O)O; assay: as §5
[12] = test system: C[C@@H](O)[C@H]1C(=O)N2C(C(=O)O)=C(SCCNC=N)C[C@H]12; assay: as §5
[13] = test system: CO/N=C(\C(=O)N[C@@H]1C(=O)N2C(C(=O)[O-])=C(C[N+]3(C)CCCC3)CS[C@H]12)c1csc(N)n1; assay: as §5

| Substance | Km [1] [µM] | kcat [2] [s⁻¹] | Km [3] [µM] | kcat [3] [s⁻¹] | Km [4] [µM] | kcat [4] [s⁻¹] | kcat/Km [5] [µM⁻¹ s⁻¹] | kcat/Km [6] [µM⁻¹ s⁻¹] | kcat/Km [7] [µM⁻¹ s⁻¹] | kcat/Km [8] [µM⁻¹ s⁻¹] | kcat/Km [9] [µM⁻¹ s⁻¹] | kcat [10] [s⁻¹] | Km [11] [µM] | kcat [11] [s⁻¹] | Km [12] [µM] | Km [13] [µM] |
| --- | --- | --- | --- | --- | --- | --- | --- | --- | --- | --- | --- | --- | --- | --- | --- | --- |
| Metallo-beta-lactamase VIM-19 (Escherichia coli) (from UniProt D2D9J0) | 250 | 25 | 40 | 250 | 350 | 100 | 6 | 0.5 |  |  |  |  |  |  |  |  |
| BlaVIM-1 (Escherichia coli) (from UniProt Q8GDC1) |  |  |  |  |  |  |  |  | < 0.0001 | 1 | 4 | 15 | > 1000 | < 0.01 | 1.5 | 145 |
